Chains of the proteins cited; added tags and fusions are not shown.
UniProt Q9NP59, whole entry: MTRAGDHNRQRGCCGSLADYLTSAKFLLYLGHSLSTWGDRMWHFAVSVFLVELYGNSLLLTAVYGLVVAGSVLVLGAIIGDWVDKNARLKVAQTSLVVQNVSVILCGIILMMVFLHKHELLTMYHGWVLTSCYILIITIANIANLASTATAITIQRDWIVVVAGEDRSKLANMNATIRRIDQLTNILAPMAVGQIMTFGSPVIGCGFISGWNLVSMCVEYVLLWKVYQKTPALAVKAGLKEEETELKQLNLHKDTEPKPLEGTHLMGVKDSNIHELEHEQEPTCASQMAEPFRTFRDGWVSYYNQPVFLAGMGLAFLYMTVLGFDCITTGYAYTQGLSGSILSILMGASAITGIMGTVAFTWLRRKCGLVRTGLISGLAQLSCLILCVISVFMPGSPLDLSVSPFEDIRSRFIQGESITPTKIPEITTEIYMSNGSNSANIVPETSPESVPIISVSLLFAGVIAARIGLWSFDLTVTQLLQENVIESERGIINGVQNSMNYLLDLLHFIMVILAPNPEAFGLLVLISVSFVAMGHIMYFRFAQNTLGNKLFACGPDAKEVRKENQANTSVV

According to US11746100B2 (GLOBAL BLOOD THERAPEUTICS, INC., priority 2020, dated 2023):

Biological target: human ferroportin (Homo sapiens, UniProt Q9NP59)
Assay: Biological in-vitro ferroportin internalization assay (luciferase reporter)
Type: cell-based
Conditions: average pEC50; stably-transfected CHO cell line expressing human ferroportin tagged to a luciferase reporter; 6 h incubation with test compound
Method: The protocol for this assay is generally as described in WO2018/128828, incorporated herein by reference in its entirety. Functional internalization of ferroportin protein was measured using a stably-transfected CHO cell line expressing the human ferroportin tagged to a luciferase reporter. Cells were plated for 24 h in the presence of ferric ammonium citrate (FAC). Ferroportin protein expression was induced with doxycycline for 24 h. The next day, the compounds were added. Test compounds were dissolved in DMSO. Cells were incubated with the test compounds for 6 h, and subsequently luciferase activity was measured using the Nano-Glo Luciferase Assay System and Glomax (Promega, Madison, Wis.). The average pEC50 was determined for the test compounds.

- pEC50: 7.3
Compound: COc1ccc(NC(=O)[C@@H](C(C)C)N(C)c2nc(-c3ccccn3)nc3c2CCC3)cn1
